Test results reported in publication PMC8596301 (Frontiers in Pharmacology, 2021).

Protein sequences, listed by entry. Tags and fused reporters are not part of them. Lines headed by an entry give the natural chain unless they say otherwise; changes in a name come on top.
UniProt P41145: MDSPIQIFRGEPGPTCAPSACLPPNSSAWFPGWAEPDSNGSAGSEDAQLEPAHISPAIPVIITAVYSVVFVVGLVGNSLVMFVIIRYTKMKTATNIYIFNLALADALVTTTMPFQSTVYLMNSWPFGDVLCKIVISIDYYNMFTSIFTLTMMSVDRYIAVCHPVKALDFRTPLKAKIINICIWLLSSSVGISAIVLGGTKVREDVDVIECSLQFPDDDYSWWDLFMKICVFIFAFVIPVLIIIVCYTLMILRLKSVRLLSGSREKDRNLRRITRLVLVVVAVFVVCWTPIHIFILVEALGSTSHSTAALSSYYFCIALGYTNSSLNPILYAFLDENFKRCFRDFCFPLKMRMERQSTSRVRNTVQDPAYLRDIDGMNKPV

Molecular target: κOR (Homo sapiens, UniProt P41145)
Assay: PathHunter β-arrestin-2 recruitment assay
Type: cell-based
Conditions: normalized to U50,488, ND = not detectable

CN(C(=O)Cc1ccc(Cl)c(Cl)c1)[C@@H]1CCCC[C@H]1N1CCCC1
β-arrestin-2 α (efficacy): 100
